Biological target: hCB2R (Homo sapiens, UniProt P34972)
Assay: [35S]-GTPγS binding assay, CB2R-containing membranes

Chains of the proteins cited; added tags and fusions are not shown.
UniProt P34972, whole entry: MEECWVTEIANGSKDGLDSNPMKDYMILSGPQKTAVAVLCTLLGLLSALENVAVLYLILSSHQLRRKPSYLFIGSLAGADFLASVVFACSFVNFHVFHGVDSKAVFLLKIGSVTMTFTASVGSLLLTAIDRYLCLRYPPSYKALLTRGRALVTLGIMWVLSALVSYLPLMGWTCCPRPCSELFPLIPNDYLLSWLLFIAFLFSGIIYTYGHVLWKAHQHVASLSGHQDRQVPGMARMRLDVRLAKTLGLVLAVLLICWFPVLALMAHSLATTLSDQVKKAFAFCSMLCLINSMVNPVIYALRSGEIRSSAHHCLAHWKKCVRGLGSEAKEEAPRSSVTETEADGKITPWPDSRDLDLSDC

CCCCCCC(C)(C)c1cc(OC)c([C@@H]2C=C(CO)[C@@H]3C[C@H]2C3(C)C)c(OC)c1 [HU308, [(1R,2R,5R)-2-[2,6-dimethoxy-4-(2-methyloctan-2-yl)phenyl]-7,7-dimethyl-4-bicyclo-[3.1.1]hept-3-enyl] methanol, reference compound]
IC50: 64.5 ± 1.6 nM

Reference: publication PMC5321205 (Journal of medicinal chemistry, 2016)
